## Yeast mating assay B: variants of the scFv Ab-14

Antigen: PDVDLGDISGINAS, a 14-residue peptide of the SARS-CoV-2 spike HR2 region.

Ab-14 is the parent antibody, in scFv form: VH, then a (GGGGS)3 linker, then VL. The light chain is unchanged in all variants.
VH: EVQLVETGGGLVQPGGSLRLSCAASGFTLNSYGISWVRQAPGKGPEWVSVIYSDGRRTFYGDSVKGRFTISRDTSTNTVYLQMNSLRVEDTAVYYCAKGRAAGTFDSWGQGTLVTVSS
VL: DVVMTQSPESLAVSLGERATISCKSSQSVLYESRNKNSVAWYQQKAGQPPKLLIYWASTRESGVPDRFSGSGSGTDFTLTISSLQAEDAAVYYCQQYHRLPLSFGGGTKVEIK

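These sequences belong to a second round, designed from the earlier measurements on random variants of the parent. Group labels follow the data file (Rand: our label for a block that the file lists under HC and that is probably the random mutants of the ten best first-round binders; En: ensemble of fine-tuned language models; HC: hill climbing; Gen: genetic algorithm; Gibbs: Gibbs sampling; a sequence that several methods proposed may carry one label only). AlphaSeq pools MATa yeast showing the antibodies with MATalpha yeast showing the peptide. After mating in shaken culture at 30 °C for 16 h, diploids were selected and their barcode pairs sequenced. Each replicate has its own calibration line, from reference interactions of the BCL2 family. Mating was done six times.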

Each variant is given by its three heavy chain CDRs, as the data file delimits them; those of the parent are GFTLNSYGIS, VIYSDGRRTFYGDSVK, GRAAGTFDS. Variants here have more than six changes. Each Kd is an estimate from the mating assay, the geometric mean of the replicates in which the pair was seen; lower is stronger. Where no diploid with the target was found in any replicate, the entry reads "nd": below detection, most likely a poor binder, though not proof of it. The range of this assay differs from that of the first round, and the authors advise against merging the two.

GFSIDEYGIS / VIYADGVRTAVDTSVK / GQLAAYFDK [En_Gibbs]: nd (0 of 6 replicates; controls 0 of 18).
GFNLDEYGIS / VIYADGRRTFYADSVK / GSHAGTFDL [En_HC]: 150 pM (6 of 6 replicates; controls 0 of 18).
GFNLNEYGIS / VIYADGRRKFYADSVK / GNQAGTFDV [En_HC]: 370 pM (6 of 6 replicates; controls 1 of 18).
GFDLDEYGIS / VIYADGMRTYYADSVK / GNVAGTFDT [En_Gen]: 440 pM (6 of 6 replicates; controls 0 of 18).
GFLIEEYGIS / VIYADGVRKAYQNSFK / GEVGGTFTN [En_Gibbs]: 3.3 nM (6 of 6 replicates; controls 0 of 18).
GFDLNEYGIS / VIYADGMRTFYADSVK / GQLAGTFSV [En_HC]: 340 pM (6 of 6 replicates; controls 0 of 18).
GFDLNEYGIS / VIYADGRRTFYSDSVK / GNVGGSFDV [En_HC]: 650 pM (6 of 6 replicates; controls 0 of 18).
GFDLDEYGIS / VIYADGKRTAYVDSVK / GNVAGTFDI [En_Gen]: 210 pM (6 of 6 replicates; controls 0 of 18).
GFDLNEYGIS / VIYADGRRTFYTDSVK / GELAGIFDV [En_HC]: 1.3 nM (6 of 6 replicates; controls 0 of 18).
GFDLDEYGIS / VIYADGMRTAYADSVK / GNQAGTFDV [En_Gen]: 960 pM (1 of 6 replicates; controls 0 of 18).
GFDLMEYGIS / VIYADGQRQVYQDNVK / GGDLVLNIV [En_Gibbs]: nd (0 of 6 replicates; controls 0 of 18).
GFDLNEYGIS / VIYADGRRTFYADNVK / GEVAGTFEV [En_HC]: 120 pM (6 of 6 replicates; controls 0 of 18).
GFDLNEYGIS / VIYADGKRTAYLDSVK / GEAAGTFDS [En_HC]: 1.1 nM (6 of 6 replicates; controls 0 of 18).
GDSLDEFGIS / VIYADGQRKAYSDNVK / GVGQAVLFD [En_Gibbs]: nd (0 of 6 replicates; controls 0 of 18).
GDSLNEYGIS / VIYADGVRARYADDVK / GENDGLFDM [En_Gibbs]: nd (0 of 6 replicates; controls 0 of 18).
GDQLDEYGIS / VIYADGMRTAYADSFK / GNKSVIIGI [En_Gibbs]: nd (0 of 6 replicates; controls 0 of 18).
GFDLDEYGIS / VIYADGKRTAYSDSVK / GEVAGTFDM [En_Gen]: 720 pM (6 of 6 replicates; controls 0 of 18).
GFDLNEYGIS / VIYADGMRTAYVDDVK / GNVAGTFDI [En_Gen]: 5.6 nM (6 of 6 replicates; controls 0 of 18).
GFDLNEYGIS / VIYADGLRTFYVDSVK / GETAGTFVS [En_HC]: 480 pM (6 of 6 replicates; controls 0 of 18).
GFDLMEYGIS / VIYADGKRTGYTDKVK / GSFGDTGKT [En_Gibbs]: nd (0 of 6 replicates; controls 2 of 18).
GFDLNEYGIS / VIYADGVRTFYADSVK / GQLAGTFDV [En_HC]: 250 pM (6 of 6 replicates; controls 0 of 18).
GFDLNEYGIS / VIYADGQRTAYSDSVK / GSNAGTFDV [En_Gen]: 240 pM (6 of 6 replicates; controls 0 of 18).
GFELEEYGIS / VIYADGQRTFYADNVK / GDVDTVVHY [En_Gibbs]: 67 nM (1 of 6 replicates; controls 0 of 18).
GFDLNEYGIS / VIYADGRRTFYTDSVK / GEFAGTFDI [En_HC]: 40 pM (6 of 6 replicates; controls 0 of 18).
GFDISEYGIS / VIYADGKKTQYKNAVK / GENGGYFNV [En_Gibbs]: 2.8 nM (1 of 6 replicates; controls 0 of 18).
GFNLNSYGNS / VIYSDGRRTFPDDSSK / GQYAGTFDS [Rand]: nd (0 of 6 replicates; controls 0 of 18).
GFDLNEYGIS / VIYADGRRTFYSDSVK / GNVGGSFDI [En_HC]: 1.2 nM (6 of 6 replicates; controls 0 of 18).
GFDLNEYGIS / VIYADGVRTFYTDSVK / GEHAGIFDV [En_HC]: 3.4 nM (6 of 6 replicates; controls 1 of 18).
GFDLNEYGIS / VIYADGMRTAYSDSVK / GNTAGTFDT [En_Gen]: 120 pM (6 of 6 replicates; controls 0 of 18).
GFTLDEYGIS / VIYADGRRTFYADSVK / GNVAGTFDI [En_HC]: 430 pM (6 of 6 replicates; controls 0 of 18).
GFNLNEYGIS / VIYADGMRTFYADSVK / GQVAGTFDV [En_HC]: 300 pM (6 of 6 replicates; controls 0 of 18).
GNTLDEYGIS / VIYADGVRMAYINKFK / GMMTGTFDQ [En_Gibbs]: nd (0 of 6 replicates; controls 0 of 18).
GFDLENYGIS / VIYADGIRKVYDQSVK / GQMGGTFTV [En_Gibbs]: nd (0 of 6 replicates; controls 0 of 18).
GFDLNEYGIS / VIYADGMRTAYADNVK / GTNAGTFDV [En_Gen]: 420 pM (6 of 6 replicates; controls 0 of 18).
GFDLDEYGIS / VIYADGMRTSYADDVK / GENAGTFDV [En_Gen]: 1.2 nM (6 of 6 replicates; controls 0 of 18).
GKDLEEYGIS / VIYADGRRTAYIENVK / DGLNDGLDV [En_Gibbs]: nd (0 of 6 replicates; controls 0 of 18).
GFNLEEYGIS / VIYADGKRTQYSENVK / GHIGNVRTV [En_Gibbs]: nd (0 of 6 replicates; controls 0 of 18).
GFDLNEYGIS / VIYADGRRTYYIDSVK / GEVAGTFDA [En_HC]: 210 pM (6 of 6 replicates; controls 0 of 18).
GFDLNEYGIS / VIYADGRRTFYSDSVK / GEIAGFFDM [En_HC]: 160 nM (1 of 6 replicates; controls 0 of 18).
GFDLNEYGIS / VIYADGVRTYYADSVK / GNVAGTFDT [En_Gen]: 580 pM (6 of 6 replicates; controls 0 of 18).
GFDLNEYGIS / VIYADGMRTFYTDSVK / GQLAGTFDF [En_HC]: 480 pM (6 of 6 replicates; controls 0 of 18).
GFDLNEYGIS / VIYADGMRTAYTDSVK / GNVAGTFDQ [En_Gen]: 400 pM (6 of 6 replicates; controls 1 of 18).
GFDLDEYGIS / VIYADGMRTAYSDSVK / GTNAGTFDV [En_Gen]: 1.4 nM (6 of 6 replicates; controls 0 of 18).
GFDLNEYGIS / VIYADGVRKAYADSVK / GQNAGTFDI [En_Gen]: 150 pM (6 of 6 replicates; controls 0 of 18).

Empty control strains, which show no peptide, gave a signal in 1% of pairings with all heavy chain designs; the median was 120 nM and 95% of these signals were weaker than 7.0 nM. No background was subtracted. Also given: how often the same scFv was detected with the empty control strains. In the paper, a design with two or fewer of six values counts as a poor binder.

Reference: Li et al. 2023, doi:10.1038/s41467-023-39022-2. File: FLAb, binding data.